# Yeast mating assay B: variants of the scFv Ab-14

Target peptide (SARS-CoV-2 spike, HR2 region): PDVDLGDISGINAS

Each scFv is VH, three GGGGS repeats, VL, as in the parent Ab-14, and differs from it in the CDRs of the heavy chain only.
VH: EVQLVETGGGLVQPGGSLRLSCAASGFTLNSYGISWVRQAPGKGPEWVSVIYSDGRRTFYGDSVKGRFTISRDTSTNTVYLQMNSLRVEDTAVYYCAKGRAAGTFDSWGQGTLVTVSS
VL: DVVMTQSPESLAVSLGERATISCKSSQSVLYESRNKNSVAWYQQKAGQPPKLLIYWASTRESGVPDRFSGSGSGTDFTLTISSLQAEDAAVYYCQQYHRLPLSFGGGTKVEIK

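The starting antibody came from a phage panning campaign against this peptide. The variants were designed computationally from a first round of random CDR variants and then made and measured. Several design methods are mixed in this list. AlphaSeq pools MATa yeast showing the antibodies with MATalpha yeast showing the peptide. The frequency of each diploid, read from paired DNA barcodes, reflects how well the two displayed proteins bind. The ratio of observed to expected reads was calibrated, replicate by replicate, on BCL2-family standards whose Kd was known from biolayer interferometry. Each pool was mated in six replicate cultures.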

The parent's heavy chain CDRs are GFTLNSYGIS, VIYSDGRRTFYGDSVK, GRAAGTFDS; each variant's own CDRs replace them letter for letter. Numbers give log10(Kd / nM), so 0 is 1 nM and 3 is 1 µM. Smaller is tighter. A mean of the replicates is given; it leaves out those without a signal. A pair that was not seen in any replicate is written "no signal"; this usually means weak binding, but a binder can also be missed. The range of this assay differs from that of the first round, and the authors advise against merging the two. Background: pairings of all heavy chain designs with three empty control strains gave a value in 1% of cases (median 2.08, 5th percentile 0.84). Values in that range, when seen in few replicates, are hard to tell from nonspecific mating. Of ten entries with the parent sequence, four were seen in most replicates (averages 0.34 to 2.37), three in one and three in none, so single entries are noisy. In the paper, a design with two or fewer of six values counts as a poor binder.

| # | CDR-H1 | CDR-H2 | CDR-H3 | mean log10 Kd (nM) | seen in |
|---|---|---|---|---|---|
| 1 | GFTLNDYGIS | VIYSDGRRTFYGDSVK | GRAAGTFVQ | no signal | 0/6 |
| 2 | GLTLASYGIS | VIYSDGVRTFYGDSVK | GRAAGTFDS | 2.25 | 1/6 |
| 3 | GFTLESYGIS | VIYSDGRRTFYADSVK | GRRAGTFDS | 1.97 | 4/6 |
| 4 | GFDLNEYGIS | VIYADGRRTFYSDSVK | GEAAGTFVM | 2.24 | 2/6 |
| 5 | GFTLDSYGIS | VIYSDGRRTFYGDSVK | GRAAGTALA | no signal | 0/6 |
| 6 | GFDLNEYGIS | VIYADGRRTSYIDSVK | GEAAGTFDS | 0.11 | 6/6 |
| 7 | GFDLNEYGIS | VIYADGRRTAYADSVK | GNVAGTFDT | -0.76 | 6/6 |
| 8 | GFNIDEFGIS | VIYADGKRSSYSDSVK | GQLGNAFDL | no signal | 0/6 |
| 9 | GDTLNSYGIS | VIYSDGRRTFYGDSVK | GRAAGTFPS | 2.07 | 5/6 |
| 10 | GADINEYGIS | VIYADGIRSAYAQDVK | GEIGSQFDI | no signal | 0/6 |
| 11 | GFGLMDYGIS | VIYADGMRRSYANSVK | GHHAGIFDF | no signal | 0/6 |
| 12 | GFTLNSYGIS | VIYADGRRTFYGDSVK | GKEAGTFDS | -0.68 | 6/6 |
| 13 | GFTLNSYGIS | VIYWWGRRTFYDDSFK | GQLAGTFDS | no signal | 0/6 |
| 14 | GFDLNEYGIS | VIYADGVRTYYADSVK | GNVAGTFDM | -0.36 | 6/6 |
| 15 | GFDLNEYGIS | VIYADGQRTFYADSVK | GQVAGTFDV | -0.78 | 6/6 |
| 16 | GFDLNEYGIS | VIYADGMRTVYADSVK | GEVAGTFDV | -1.18 | 6/6 |
| 17 | GFELNSYGIS | VIYSDGRRTFYGDSVK | GHVAGTFDS | 0.69 | 6/6 |
| 18 | GFDLEDYGIS | VIYADGRRTAYIDSVK | GNVAGTFDV | -0.41 | 6/6 |
| 19 | GFSLNSYGIS | VIYSDGRRTFYHDSVK | GQAAGTFDS | no signal | 0/6 |
| 20 | GFDIEDYGIS | VIYADGKRSAYSNSFK | GLMAGNMGV | no signal | 0/6 |
| 21 | GFTLNSYGIS | VIYSDGRRTFYGDSVK | GYLAGTFDS | 1.70 | 3/6 |
| 22 | GFDLNEYGIS | VIYADGQRTAYADDVK | GNQAGTFDL | 1.07 | 6/6 |
| 23 | GFTLNEYGIS | VIYSDGRRTFYGDSVK | GRAAGTFKL | no signal | 0/6 |
| 24 | GFDLNSYGIS | VIYSDGRRTFYGDSVK | GRTAGTFDE | 0.33 | 6/6 |
| 25 | GFWLNEYGIS | VIYSDGRRTFYSDSVK | GQAAGTFDS | 0.25 | 6/6 |
| 26 | GFTLNSYGIS | VIYSIGRMTFYDDSVK | GQLANTFDS | no signal | 0/6 |
| 27 | GFTLNSYGIS | VIYSDGRRTFYGDSVK | GKIAGTFDK | 0.97 | 4/6 |
| 28 | GFDLNEYGIS | VIYADGRRTFYTDSVK | GETAGTFDQ | -0.44 | 6/6 |
| 29 | GFELNEYGIS | VIYSDGRRTMYMDSVK | GRTAGTFDS | 0.40 | 6/6 |
| 30 | GFHLNSYGIS | VIYSDGRRTAYGDSVK | GRNAGTFDS | 2.47 | 5/6 |
| 31 | KFDLNSYGIS | VIYSDGRRTFYGDSVK | GWTAGTFDS | -0.51 | 6/6 |
| 32 | GFHLNSYGIS | VIYSDGRRTAYGDSVK | GRAAGTFDS | 0.63 | 6/6 |
| 33 | GFTLNEYGIS | VIYSDGRRTFYGDSVK | GRCAGTFDD | no signal | 0/6 |
| 34 | GFDLNEYGIS | VIYADGKRTAYADSVK | GQVAGTFDS | -0.49 | 6/6 |
| 35 | GFTLNSYGIS | VIYSDGMRTFYSDSVK | QRLAGTFDS | 1.84 | 2/6 |
| 36 | GFDLNEYGIS | VIYADGRRTFYADDVK | GNVAGTFDL | -0.51 | 6/6 |
| 37 | EFDLNNYGIS | VIYADGLRTAYETSFK | GINAGTFDS | 1.33 | 4/6 |
| 38 | GFTLNKYGIS | VIYSDGRRTFYGDDVK | GRAAGTFDS | 1.29 | 1/6 |
| 39 | GFTLNDYGIS | VIYSDGRRTFYIDSVK | GKAAGTFDS | 1.09 | 6/6 |
| 40 | GFDLDEYGIS | VIYADGRRTFYADSVK | GTNAGTFDV | -0.61 | 6/6 |
| 41 | GFRLNSYGIA | VIYSDGRRTEYGDSVK | GKAAGTSDS | no signal | 0/6 |
| 42 | GFTLELYGIS | VIYSDGRRTFYSDSVK | GRAAGRFDS | 2.04 | 3/6 |
| 43 | GFTLNSYGIS | VIYADGRRTFYGDSVK | GRAYGTFDS | no signal | 0/6 |
| 44 | GFDLNEYGIS | VIYADGKRTAYSDSVK | GEVAGTFDQ | -0.49 | 6/6 |
| 45 | GFDLNSYGIS | VIYSDGRRTFYGDAVK | GQAAGTFDQ | 0.80 | 6/6 |
| 46 | GFDLNEYGIS | VIYADGMRTAYANDVK | GENAGTFDV | -0.20 | 6/6 |
| 47 | GFTLNEYGIS | VIYSDGRRTFYQDDVK | GRFAGTFDS | 0.73 | 6/6 |

The opening 3 entries, copied out:

| CDR-H1 | CDR-H2 | CDR-H3 | mean log10 Kd (nM) | seen in |
|---|---|---|---|---|
| GFTLNDYGIS | VIYSDGRRTFYGDSVK | GRAAGTFVQ | no signal | 0/6 |
| GLTLASYGIS | VIYSDGVRTFYGDSVK | GRAAGTFDS | 2.25 | 1/6 |
| GFTLESYGIS | VIYSDGRRTFYADSVK | GRRAGTFDS | 1.97 | 4/6 |

The measurements come from Li et al. 2023 (doi:10.1038/s41467-023-39022-2) through the FLAb antibody collection.